Molecular target: NfnB-cys1 (Escherichia coli, UniProt P38489)
Assay: Amperometric response of biosensor (gold slide modified with NfnB-cys1)
Conditions: 2 nM DNEB in the cell; +100 mV vs SCE; 0.1 M phosphate buffer pH 7.1; co-factor dicarboxylic ferrocene

Protein sequences, listed by entry. Tags and fused reporters are not part of them. Chains listed by the source or under a name are the forms on record and can include a tag or linker. Residues count along the entry.
UniProt P38489, 2-217 with tags or gaps: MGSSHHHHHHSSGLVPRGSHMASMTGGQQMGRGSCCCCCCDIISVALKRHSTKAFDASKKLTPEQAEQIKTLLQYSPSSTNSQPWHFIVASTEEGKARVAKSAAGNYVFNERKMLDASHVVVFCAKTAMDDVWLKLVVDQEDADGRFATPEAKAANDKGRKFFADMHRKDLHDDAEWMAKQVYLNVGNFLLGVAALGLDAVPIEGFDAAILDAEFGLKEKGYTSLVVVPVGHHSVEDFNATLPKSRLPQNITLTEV

How did the “drop in current after addition of substrate” value turn out when 2,4-dinitroethylbenzene was run?
The value was “approximately 10 nA”.

Molecular target: Cys6 tagged nfnB nitroreductase (Escherichia coli, UniProt P38489)
Assay: Nitroreductase UV assay (NADPH, 340 nm) with various nitro substrates
Conditions: FIG. 5, 25° C.

For `Cc1ccc([N+](=O)[O-])cc1`, which “activity of Cys6 tagged nfnB nitroreductase on various substrates (substrate quality)” value is on record?
The value was “good substrates”.

2,4-dinitroethylbenzene was tested. Which “activity of Cys6 tagged nfnB nitroreductase on various substrates (substrate quality)” value did it give?
Its value is “excellent substrates”.

Which “activity of Cys6 tagged nfnB nitroreductase on various substrates (substrate quality)” value does the source give for `CCCCC(CC)CO[N+](=O)[O-]` (stereo not shown) here?
Its value is “good substrates”.

`O=[N+]([O-])c1ccccc1[N+](=O)[O-]` was tested. Which “activity of Cys6 tagged nfnB nitroreductase on various substrates (substrate quality)” value did it give?
Its value is “excellent substrates”.

`O=[N+]([O-])c1ccccc1` was tested. Which “activity of Cys6 tagged nfnB nitroreductase on various substrates (substrate quality)” value did it give?
Its value is “good substrates”.

How did the “activity of Cys6 tagged nfnB nitroreductase on various substrates (substrate quality)” value turn out when 4-nitrobenzoate was run?
The value was “excellent substrates”.
